Source: patent publication US10266527B2, “T-box riboswitch-binding anti-bacterial compounds” (THE RESEARCH FOUNDATION FOR THE STATE UNIVERSITY OF NEW YORK, priority 2013, dated 2019)

System: Human Embryonic Kidney (HEK293) cells
Test: Toxicity on a monolayer of HEK293 cells
Format: cell-based
Conditions: 1 ug/ml

Gentamicin [reference compound]
16 hr post exposure % Live: 100% | 16 hr post exposure Morphology: Normal | 24 hr post exposure % Confluent: 90% | 24 hr post exposure % Live: 100% | 24 hr post exposure Morphology: Normal
